Tests used:
[1] = test system: α-glucosidase (EC 3.2.1.20); conditions: ratio of IC50 values versus acarbose
[2] = molecular target: T1, porcine pancreatic α-amylase (EC 3.2.1.1, type VI) (Sus scrofa, UniProt P00690); assay: α-Amylase inhibition; type: biochemical; conditions: means ± SE
T1 construct: purchased Sigma-Aldrich (St. Louis, MO, USA) type VI (catalogue number not given)
T1 sequence (P00690 16-511): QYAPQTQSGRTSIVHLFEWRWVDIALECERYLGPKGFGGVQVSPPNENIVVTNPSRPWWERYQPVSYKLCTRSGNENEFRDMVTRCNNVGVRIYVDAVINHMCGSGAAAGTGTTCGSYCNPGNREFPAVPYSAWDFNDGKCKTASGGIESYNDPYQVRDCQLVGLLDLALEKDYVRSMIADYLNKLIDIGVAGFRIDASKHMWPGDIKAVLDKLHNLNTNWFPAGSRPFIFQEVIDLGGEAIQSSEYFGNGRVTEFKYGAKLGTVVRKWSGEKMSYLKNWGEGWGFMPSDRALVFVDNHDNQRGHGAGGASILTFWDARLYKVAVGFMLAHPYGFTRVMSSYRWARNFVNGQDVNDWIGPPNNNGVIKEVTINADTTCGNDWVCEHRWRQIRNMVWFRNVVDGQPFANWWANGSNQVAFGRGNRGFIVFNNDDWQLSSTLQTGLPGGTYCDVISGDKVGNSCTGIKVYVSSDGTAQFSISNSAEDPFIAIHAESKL
Protocol: The inhibitory activity of each sample against α-amylase was measured as described previously. Sample (40 μL) dissolved in sodium phosphate buffer (SPB, 20 mM and pH 6.9) with 6 mM NaCl was added to 1.0 U/ml α-amylase (200 μL) in SPB and incubated at 30 °C for 10 min. After 10 min, 400 μL of 0.3% starch solution in SPB was added to each tube. […] Each tube was incubated in boiling water for 20 min and cooled to 27 °C. The reaction was diluted by adding 10 ml distilled water and absorbance at 540 nm was measured using a UV-Vis spectrophotometer. The control contained 20 mM SPB (pH 6.9, 200 μL) instead of α-amylase.

| Compound | times more active than acarbose against α-glucosidase [1] | IC50 [2] |
| --- | --- | --- |
| CC(=O)C=CC1=C(C)CCCC1(C)C [4-(2,6,6-trimethyl-1-cyclohexenyl)-3-buten-2-one] | 2.40 times |  |
| CC(=O)C=CC1C(C)=CCCC1(C)C (centres unmarked) [4-(2,6,6-trimethyl-2-cyclohexenyl)-3-buten-2-one] |  | 453 µM |
